This note sets out measurements from PMC6366850 (Chembiochem : a European journal of chemical biology, 2018).

The target of this assay is T1, Human Neutrophil Elastase (Homo sapiens, UniProt P08246).
T1 sequence (P08246 30-267): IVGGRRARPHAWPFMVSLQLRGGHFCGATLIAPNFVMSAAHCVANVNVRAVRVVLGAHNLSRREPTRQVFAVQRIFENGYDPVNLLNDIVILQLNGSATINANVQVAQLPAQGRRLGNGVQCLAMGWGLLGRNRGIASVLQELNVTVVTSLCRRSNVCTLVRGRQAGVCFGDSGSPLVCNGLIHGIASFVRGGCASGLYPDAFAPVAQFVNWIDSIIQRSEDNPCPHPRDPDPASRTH
Nature of the assay: Human neutrophil elastase inhibition assay. The class given is biochemical.

Each structure is given as a SMILES string.

Usually IC50 stands for the concentration that gives 50% inhibition. `CC(C)(C)C(=O)Oc1ccc(S(=O)(=O)Nc2ccccc2C(=O)NCC(=O)O)cc1` [Sivelestat, reference compound] came in with an IC50 of 60 ± 10 nM.
